Target: T1, Bile acid receptor (Mus musculus) (UniProt Q60641)
T1 sequence (whole entry): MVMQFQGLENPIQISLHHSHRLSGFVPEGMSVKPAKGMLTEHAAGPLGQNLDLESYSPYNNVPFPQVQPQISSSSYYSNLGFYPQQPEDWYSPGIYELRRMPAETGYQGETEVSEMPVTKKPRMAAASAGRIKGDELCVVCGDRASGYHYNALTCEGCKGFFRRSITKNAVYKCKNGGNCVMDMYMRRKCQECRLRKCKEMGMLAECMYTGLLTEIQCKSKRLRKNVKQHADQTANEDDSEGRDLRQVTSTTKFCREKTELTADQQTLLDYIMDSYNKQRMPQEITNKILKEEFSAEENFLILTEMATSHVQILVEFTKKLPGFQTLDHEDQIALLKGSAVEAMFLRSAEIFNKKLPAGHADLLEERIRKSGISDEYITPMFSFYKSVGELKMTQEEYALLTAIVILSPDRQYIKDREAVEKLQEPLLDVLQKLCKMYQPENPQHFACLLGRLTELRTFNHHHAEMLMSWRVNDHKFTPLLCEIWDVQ
Conditions: C57BL6/NTac, dose 3.0 mg/kg, time 6.0 hrs

Row | Structure (SMILES) | inhibition
1 | O=C(O)c1cc(C(F)(F)F)c2cc(N3CCC4(C=C(c5c(-c6c(Cl)cncc6Cl)noc5C5CC5)C4)CC3)ccc2n1 | 94%
2 | O=C(O)c1cc(F)c2nc(N3CCC4(C=C(c5c(-c6c(Cl)cccc6Cl)noc5C5CC5)C4)CC3)sc2c1 | 99%
3 | O=C(O)c1cc(F)c2nc(N3CCC(/C=C/c4c(-c5c(Cl)cccc5Cl)noc4C4CC4)CC3)sc2c1 | 96%
